# What was measured:
# Amino acid sequences for entries named in this document (tags omitted). Residues count along the entry.
# UniProt P47871, 26-477: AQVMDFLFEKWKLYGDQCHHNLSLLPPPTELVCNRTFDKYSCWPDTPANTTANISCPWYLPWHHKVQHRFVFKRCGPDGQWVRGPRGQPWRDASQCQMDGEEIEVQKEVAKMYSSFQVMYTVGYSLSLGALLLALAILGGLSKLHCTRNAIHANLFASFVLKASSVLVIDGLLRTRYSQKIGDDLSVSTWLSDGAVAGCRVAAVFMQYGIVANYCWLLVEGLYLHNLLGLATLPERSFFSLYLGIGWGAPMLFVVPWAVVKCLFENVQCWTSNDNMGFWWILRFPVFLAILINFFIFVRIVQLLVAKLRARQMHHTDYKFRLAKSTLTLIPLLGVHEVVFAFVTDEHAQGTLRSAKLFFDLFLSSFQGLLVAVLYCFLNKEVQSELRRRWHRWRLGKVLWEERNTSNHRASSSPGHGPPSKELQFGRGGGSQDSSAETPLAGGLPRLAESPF
# UniProt P43220, 24-463: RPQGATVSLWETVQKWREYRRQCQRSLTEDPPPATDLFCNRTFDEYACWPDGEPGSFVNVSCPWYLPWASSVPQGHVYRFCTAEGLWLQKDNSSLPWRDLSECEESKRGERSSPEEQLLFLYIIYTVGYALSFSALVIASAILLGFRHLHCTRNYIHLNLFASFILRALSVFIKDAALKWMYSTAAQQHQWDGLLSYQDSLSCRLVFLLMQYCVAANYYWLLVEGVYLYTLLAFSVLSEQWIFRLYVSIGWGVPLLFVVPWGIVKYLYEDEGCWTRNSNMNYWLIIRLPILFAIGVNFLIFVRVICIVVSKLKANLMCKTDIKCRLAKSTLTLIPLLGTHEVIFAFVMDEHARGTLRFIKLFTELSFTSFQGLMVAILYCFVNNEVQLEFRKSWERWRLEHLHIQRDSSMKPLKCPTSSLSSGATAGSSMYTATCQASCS
# [1] = molecular target: T1, Human GIP R (Homo sapiens, UniProt P48546); assay: cAMP (HTRF) activity in CHO cells stably overexpressing GIP receptor; format: cell-based; conditions: EC50 of human GIP / EC50 of compound
# T1 construct: expressed in transfected cells; host or cells: CHO
# T1 sequence (P48546 22-466): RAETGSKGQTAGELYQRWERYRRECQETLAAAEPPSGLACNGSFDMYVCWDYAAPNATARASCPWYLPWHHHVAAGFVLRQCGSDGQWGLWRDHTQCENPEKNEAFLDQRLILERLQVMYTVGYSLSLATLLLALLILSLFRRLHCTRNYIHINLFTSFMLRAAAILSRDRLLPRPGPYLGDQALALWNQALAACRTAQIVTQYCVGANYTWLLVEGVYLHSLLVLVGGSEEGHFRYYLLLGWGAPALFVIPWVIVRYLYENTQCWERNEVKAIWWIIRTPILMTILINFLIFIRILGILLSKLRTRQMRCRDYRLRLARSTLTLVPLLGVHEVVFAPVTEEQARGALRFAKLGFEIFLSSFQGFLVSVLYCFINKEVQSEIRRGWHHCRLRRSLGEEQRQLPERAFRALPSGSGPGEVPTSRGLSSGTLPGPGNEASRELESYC
# Outline: (§1)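 Cells resuspended in HBSS are incubated with compound for 60 min at room temperature, then with HTRF cAMP detection reagent for a further 60 min. Concentration-response fits give agonist EC50 values in nM.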
# [2] = molecular target: T2, Human GCG R (Homo sapiens, UniProt P47871); assay: cAMP (HTRF) activity in HEK-293 cells stably overexpressing human GCG receptor; format: cell-based; conditions: EC50 of human GCG / EC50 of compound
# T2 construct: expressed in transfected cells; host or cells: HEK-293
# Outline: as §1
# [3] = system: human primary liver cells; format: cell-based
# Outline: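 cAMP readout after 60 min with detection reagent, following 60 min room-temperature compound incubation. Cells were primary human liver cells thawed at 37° C and resuspended in HBSS.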
# [4] = system: C57 BL/6J DIO mice; assay: In vivo pharmacodynamics in high-fat diet induced obesity (DIO) mice; set-up: species or system mouse; conditions: Mean±SEM; for Weight change: Table 6-2; for LDL-C / TC (total cholesterol) / TG (plasma triglycerides): Table 7-2
# Text: High-fat diet induced obesity (DIO) mice have characteristics such as obesity, elevated blood sugar, insulin resistance, and lipid abnormalities, all of which are very significant metabolic syndromes similar to a human body. The effects of the compounds of the present application on body weight, food intake, blood sugar, and lipids in C57 BL/6J DIO mice were studied.
# Obesity was induced in mice by feeding with a high-fat diet (60 kcal % of calories from fat). […] After grouping, one animal was raised in each cage for one week, during which each of the animals was injected subcutaneously (S.C.) with a solvent (1×PBS, 5 ml/kg) to pre-adapt the experimental operation process.
# After the preparation of animals, vehicle control or compounds were administered to groups of animals by subcutaneous injection, in which the compounds were dissolved in 1×PBS, the dosage was 5 ml/kg, and the administration operation was started at 9:00 am and conducted once every three days (Q3D) for 15 days. Throughout the entire experimental study, animal weight and food intake were measured daily before administration, and compared with initial weight and food intake of the same animal before administration to calculate a percentage change in animal weight (%) and cumulative food intake, so as to evaluate the impact of compounds on changes in body weight and food intake.
# At the end point of the experiment (Day 15), the body weight of the mice was measured, and then fasting blood glucose was measured by taking blood from the tail tip of broken tail without anesthesia. After the blood collection, the animals were anesthetized with CO2 and euthanized. Then, blood was taken from the heart and plasma was separated by centrifugation. The plasma was used to measure total cholesterol (TC), low-density lipoprotein cholesterol (LDL-C), triglycerides (TG), and blood insulin content. The liver was separated for homogenization, and then centrifuged to obtain the supernatant for determining triglyceride content in the liver.
# All results were expressed in Mean±SEM, and the results were analyzed by one-way ANOVA using GraphPad Prism 5 software, followed by Dunnett's post hoc test compared to the Vehicle control group. The difference at the p<0.05 level was considered statistically significant.
# [5] = Rat pharmacokinetics (PK) study; format: in vivo; conditions: sc, male SD rats, subcutaneous 30 nmol/kg, plasma
# Experimental: 7˜9 weeks old male SD rats (220-250 g, 3 rats/group) were subjected to subcutaneous injection of 30 nmol/kg compound. After administration, blood was collected through the jugular vein at time points 0.25, 2, 4, 8, 12, 16, 24, 48, 96, 120, and 144 hours. The blood was processed to obtain plasma samples and analyzed using LC-MS/MS. The blood concentration time curve was analyzed using Phoenix WinNonlin version 6.3 software (non compartment model), and PK parameters and half-life were calculated.
# [6] = molecular target: Human GLP-1R (Homo sapiens, UniProt P43220); assay: cAMP (HTRF) activity in HEK-293 cells stably overexpressing human GLP-1 receptor; format: cell-based; set-up: expressed in transfected cells; host or cells: HEK-293
# Outline: as §1
smiles,measurement,setting,value
CC[C@H](C)[C@H](NC(=O)[C@H](Cc1ccccc1)NC(=O)[C@H](C)NC(=O)C(C)(C)NC(=O)[C@H](CCC(N)=O)NC(=O)[C@H](C)NC(=O)[C@H](CCCCNC(=O)COCCOCCNC(=O)COCCOCCNC(=O)CC[C@H](NC(=O)CCCCCCCCCCCCCCCCCCC(=O)O)C(=O)O)NC(=O)[C@H](CCCCN)NC(=O)[C@H](CC(=O)O)NC(=O)[C@H](CC(C)C)NC(=O)[C@H](Cc1ccccc1)NC(=O)[C@@H](NC(=O)[C@H](CO)NC(=O)[C@H](Cc1ccc(O)cc1)NC(=O)[C@H](CC(=O)O)NC(=O)[C@H](CO)NC(=O)[C@@H](NC(=O)[C@](C)(Cc1ccccc1F)NC(=O)[C@@H](NC(=O)CNC(=O)[C@H](CCC(N)=O)NC(=O)C(C)(C)NC(=O)[C@@H](N)Cc1ccc(O)cc1)[C@@H](C)O)[C@@H](C)O)[C@@H](C)CC)C(=O)N[C@@H](CCC(=O)O)C(=O)N[C@@H](Cc1ccc(O)cc1)C(=O)N[C@@H](CC(C)C)C(=O)N[C@@H](CC(C)C)C(=O)N[C@@H](CCC(=O)O)C(=O)N[C@H](C(=O)NCC(=O)N1CCC[C@H]1C(=O)N[C@@H](CO)C(=O)N[C@@H](CO)C(=O)NCC(=O)N[C@@H](C)C(=O)N1CCC[C@H]1C(=O)N1CCC[C@H]1C(=O)N1CCC[C@H]1C(=O)N[C@@H](CO)C(N)=O)[C@@H](C)O [Compound 17],Human GIP R Rel. A (Relative Activity),[1],952.63%
same,Human GCG R Rel. A (Relative Activity),[2],162.86%
same,EC50,"[3]; cAMP, at least 3 independent tests, read-out: EC50 on human primary liver cells",1.68 nM
same,Rel. A (Relative Activity) on human primary liver cells,[3]; relative to GCG,231.75%
same,Weight change,[4]; 3 nmol/kg s.c. Q3D for 15 days,−13.6 ± 0.90%
same,Weight change,[4]; 10 nmol/kg s.c. Q3D for 15 days,−22.7 ± 1.87%
same,LDL-C,"[4]; 3 nmol/kg, Day 15",0.43 ± 0.033 mM
same,TC (total cholesterol),"[4]; 3 nmol/kg, Day 15",3.85 ± 0.174 mM
same,TG (plasma triglycerides),"[4]; 3 nmol/kg, Day 15",0.82 ± 0.015 mM
same,LDL-C,"[4]; 10 nmol/kg, Day 15",0.38 ± 0.024 mM
same,TC (total cholesterol),"[4]; 10 nmol/kg, Day 15",3.19 ± 0.216 mM
same,TG (plasma triglycerides),"[4]; 10 nmol/kg, Day 15",0.64 ± 0.040 mM
same,Blood sugar (fasting blood glucose),"[4]; Table 8-2, 3 nmol/kg, Day 15",141.1 ± 2.45 mg/dL
same,Insulin (blood),"[4]; Table 8-2, 3 nmol/kg, Day 15",37.5 ± 18.49 mIU/L
same,AUC(0-t),[5],5.81 µM·h
same,Cmax,[5],136 nM
same,Tmax,[5],17.3 h
same,half-life,[5],17.3 h
same,EC50,[6],0.011 nM
same,Human GLP-1R Rel. A (Relative Activity),[6]; EC50 of human GLP-1 (7-37) / EC50 of compound,400.00%
